Assay results: ChEMBL document CHEMBL1138974 (Bioorg Med Chem Lett, 2006)

The chains behind the UniProt entries cited, without tags or fusion partners.
UniProt P35372, whole entry, looked up: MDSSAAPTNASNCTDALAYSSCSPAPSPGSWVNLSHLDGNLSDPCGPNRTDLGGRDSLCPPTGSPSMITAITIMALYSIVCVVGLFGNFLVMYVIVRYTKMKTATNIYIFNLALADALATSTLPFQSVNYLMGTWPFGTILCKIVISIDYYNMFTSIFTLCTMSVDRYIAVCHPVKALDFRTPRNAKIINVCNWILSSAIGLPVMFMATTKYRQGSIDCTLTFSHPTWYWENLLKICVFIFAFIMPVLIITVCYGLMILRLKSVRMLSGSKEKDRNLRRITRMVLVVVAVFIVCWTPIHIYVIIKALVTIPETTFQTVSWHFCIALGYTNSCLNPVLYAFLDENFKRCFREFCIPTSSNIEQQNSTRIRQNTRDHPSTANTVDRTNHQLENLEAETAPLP

Target: Mu-type opioid receptor (Homo sapiens, UniProt P35372)
Assay: Displacement of [3H]naloxone from human mu opioid receptor expressed in BHK cells

## O=C1NCC(c2ccccc2)C12CCN(C1CCCCC1(O)c1ccc(F)cc1)CC2 (configuration not stated)
  IC50: > 10 µM and 24 µM

## O=C1NC[C@@H](c2ccccc2)C12CCN(C1CCCCC1c1ccccc1)CC2 (some centres not stated)
  IC50: 3.92 µM

Values joined by “and” are separate entries in the source; they are usually repeats but may differ in a detail not shown here. Equal entries are not always repeated.
